Laboratory results as given in article PMC12310199 (2025).

B1: Flag-C1QBP, full length [not stated] / PA28γ in 293T cells (co-immunoprecipitation of Figure 1J) [human (endogenous in 293T)] (parent complex)
chain 1: LHTDGDKAFVDFLSDEIKEERKIQKHKTLPKMSGGWELELNGTEAKLVRKVAGEKITVTFNINNSIPPTFDGEEEPSQGQKVEEQEPELTSTPNFVVEVIKNDDGKKALVLDCHYPEDEVGQEDEAESDIFSIREVSFQSTGESEWKDTNYTLNTDSLDWALYDHLMDFLADRGVDNTFADELVELSTALEHQEYITFLEDLKSFVKSQ
chain 2: MASLLKVDQEVKLKVDSFRERITSEAEDLVANFFPKKLLELDSFLKEPILNIHDLTQIHSDMNLPVPDPILLTNSHDGLDGPTYKKRRLDECEEAFQGTKVFVMPNGMLKSNQQLVDIIEKVKPEIRLLIEKCNTVKMWVQLLIPRIEDGNNFGVSIQEETVAELRTVESEAASYLDQISRYYITRAKLVSKIAKYPHVEDYRRTVTEIDEKEYISLRLIISELRNQYVTLHDMILKNIEKIKRPRSSNAETLY

Variants of: B1
Experiment: co-immunoprecipitation (IP, western blot with band densitometry printed under lanes); 293T cells transfected for 48 hr; parent: 5.3
chain 1 LHTDNDKAFVDFLSDEIKEERKIQKHKTLPKMSGGWELELNGTEAKLVRKVAGEKITVTFNINNSIPPTFDGEEEPSQGQKVEEQEPELTSTPNFVVEVIKNDDGKKALVLDCHYPEDEVGQEDEAESDIFSIREVSFQSTGESEWKDTNYTLNTDSLDWALYDHLMDFLADRGVDNTFADELVELSTALEHQEYITFLEDLKSFVKSQ [chain 1 G5N] was tested, and the response was 1 relative Flag band intensity in IP.
